Test results taken from ChEMBL document CHEMBL5352499, “Differentiating Inhibition Selectivity and Binding Affinity of Isocitrate Dehydrogenase 1 Variant Inhibitors” (J Med Chem, 2023).
The source made the active and inactive calls.

Chains of the proteins cited; added tags and fusions are not shown.
UniProt O75874, whole entry: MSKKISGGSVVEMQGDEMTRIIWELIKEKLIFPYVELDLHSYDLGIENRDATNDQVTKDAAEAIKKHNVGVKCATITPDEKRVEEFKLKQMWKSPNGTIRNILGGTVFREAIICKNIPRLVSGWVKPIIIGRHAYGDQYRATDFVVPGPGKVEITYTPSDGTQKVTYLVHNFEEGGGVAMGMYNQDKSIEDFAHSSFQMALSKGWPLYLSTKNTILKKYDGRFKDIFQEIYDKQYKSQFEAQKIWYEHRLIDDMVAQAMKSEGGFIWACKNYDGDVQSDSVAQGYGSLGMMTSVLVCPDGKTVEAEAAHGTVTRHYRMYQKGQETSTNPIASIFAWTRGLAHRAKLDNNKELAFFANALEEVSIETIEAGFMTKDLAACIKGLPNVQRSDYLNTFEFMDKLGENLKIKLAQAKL
UniProt O75874, whole entry R132H: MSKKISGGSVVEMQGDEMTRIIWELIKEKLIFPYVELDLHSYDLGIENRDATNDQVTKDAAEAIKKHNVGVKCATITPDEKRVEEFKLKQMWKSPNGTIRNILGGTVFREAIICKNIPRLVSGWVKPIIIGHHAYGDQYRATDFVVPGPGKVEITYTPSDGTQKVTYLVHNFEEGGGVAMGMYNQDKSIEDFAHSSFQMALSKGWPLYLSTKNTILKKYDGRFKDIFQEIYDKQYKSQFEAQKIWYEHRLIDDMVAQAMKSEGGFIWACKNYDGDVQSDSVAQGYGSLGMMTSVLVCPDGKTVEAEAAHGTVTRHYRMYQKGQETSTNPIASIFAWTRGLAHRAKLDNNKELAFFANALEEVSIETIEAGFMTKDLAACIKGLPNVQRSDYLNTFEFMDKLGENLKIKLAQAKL

Columns and labels:
[1] = target: T1, Isocitrate dehydrogenase [NADP] cytoplasmic (Homo sapiens, UniProt O75874); assay: Binding affinity to recombinant wildtype IDH1 (unknown origin) expressed in Escherichia coli BL21(DE3) pLysS cells incubated in presence of MgCl2 by NMR analysis
[2] = test system: Isocitrate dehydrogenase [NADP] cytoplasmic (Homo sapiens), O75874 [R132H]; assay: Binding affinity to recombinant IDH1 R132H mutant (unknown origin) expressed in Escherichia coli BL21(DE3) pLysS cells incubated in presence of MgCl2 by NMR analysis
[3] = target: T1, Isocitrate dehydrogenase [NADP] cytoplasmic; assay: Binding affinity to recombinant IDH1 (unknown origin) expressed in Escherichia coli BL21(DE3) pLysS cells incubated in presence of MgCl2 by ITC assay
Procedure, shortened: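 Homodimeric wt IDH1 in 50 mM tris–HCl, pH 7.5; cell 40 μM protein (4% v/v DMSO), titrant 200 or 400 μM compound (2% or 4% DMSO). 25 °C, stirring 750 rpm, 19 injections (0.4 μL then 18 × 2.0 μL, 150 s apart); thermodynamic parameters fitted from the heats.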

[4] = test system: Isocitrate dehydrogenase [NADP] cytoplasmic (Homo sapiens), O75874 [R132H]; assay: Binding affinity to recombinant IDH1 R132H mutant (unknown origin) expressed in Escherichia coli BL21(DE3) pLysS cells incubated in presence of MgCl2 by ITC assay
Procedure, shortened: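 IDH1 R132H homodimer in 50 mM tris–HCl, pH 7.5; 40 μM protein in cell (4% v/v DMSO) titrated at 25 °C with 200 or 400 μM compound (2% or 4% DMSO), 19 injections (0.4 μL, then 2.0 μL × 18, 150 s spacing), 750 rpm; thermodynamic parameters from fitted isotherm.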

Measured: Activity

Cc1ccccc1C(C(=O)NC1CCCCC1)N(C(=O)Cn1ccnc1C)c1cccc(F)c1 (centres undefined)
active: [1] | [2] | [3] | [4]
